Paper PMC7278359, “Small molecule AX-024 reduces T cell proliferation independently of CD3ϵ/Nck1 interaction, which is governed by a domain swap in the Nck1-SH3.1 domain” (The Journal of Biological Chemistry, 2020)

Key:
[1] = molecular target: Nck1-SH3.1 (residues 4–59) (human) (UniProt P16333); test: SEC; monomer to dimer; 1.14 mM Nck1-SH3.1 (4–59) dimer, after overnight incubation at 37 °C; Superdex 75 Increase 3.2/300; 25 mM HEPES/NaOH pH 7.8, 150 mM NaCl; constant from integrated signals, equilibrium assumed
[2] = molecular target: Nck1-SH3.1 (residues 4–59) (human) (UniProt P16333); test: AUC; multispeed sedimentation equilibrium; 50 μM dimeric Nck1-SH3.1 (4–59) preincubated at 42 °C for 24 h; measured at 20 °C; 25 mM HEPES/NaOH pH 7.4, 150 mM NaCl; monomer-dimer self-association model (2 M ⇄ D)
[3] = molecular target: Nck1-SH3.1 (residues 4–59) (human) (UniProt P16333); test: AUC; multispeed sedimentation equilibrium; Nck1-SH3.1 (4–59) dimer peak from SEC at 10 and 50 μM; 20 °C; 25 mM HEPES/NaOH pH 7.4, 150 mM NaCl

Ka [1]: 4150 M⁻¹
Kd [1]: 180 µM
Ka [2]: 3380 M⁻¹
Kd [2]: 300 µM
stoichiometry N [3]: 2
Substance: Nck1-SH3.1 (residues 4–59) (from UniProt P16333 4-59) (domain or fragment)
